For one substance, Ki results are on record in patent publication US7202046B2, “Use of a fluorescent protein for detecting interaction between a target protein and its ligand” (priority 1997, dated 2007).

Amino acid sequences for entries named in this document (tags omitted).
UniProt P16610, whole entry: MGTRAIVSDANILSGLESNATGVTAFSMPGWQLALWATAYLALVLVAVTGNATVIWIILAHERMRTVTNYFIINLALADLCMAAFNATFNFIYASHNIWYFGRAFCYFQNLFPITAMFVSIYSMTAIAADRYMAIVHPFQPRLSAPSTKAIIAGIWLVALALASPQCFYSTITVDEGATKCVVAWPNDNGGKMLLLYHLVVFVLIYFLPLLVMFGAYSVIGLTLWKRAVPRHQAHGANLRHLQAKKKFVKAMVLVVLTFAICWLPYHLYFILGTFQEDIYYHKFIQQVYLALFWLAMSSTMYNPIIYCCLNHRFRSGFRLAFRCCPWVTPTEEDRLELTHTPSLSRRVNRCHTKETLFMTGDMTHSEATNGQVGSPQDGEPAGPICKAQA

The test deals with T1, wild-type NK2R receptor (Rattus norvegicus, UniProt P16610).
T1 construct: expressed in transfected cells; host or cells: HEK 293 cells, construct pCEP4-NK2R
As to the kind of experiment: Displacement of 3H SR 48968 binding (competition experiment), HEK 293 cells expressing wild-type NK2R. The settings on record: read-out: KI, displacement of 3H SR 48968; 1 nM 3H SR 48968, 25,000 cells, 4° C. The method, then: The curves for the displacement of the binding of ^3HSR 48968 with a non-radioactive ligand are carried out in 10 mM Hepes, 137.5 mM NaCl, 1.25 mM MgCl2, 1.25 mM CaCl2, 6 mM KCl, 5.6 mM glucose, 0.4 mM NaH2PO4, 0.1% (w/v) BSA, pH 7.4 buffer at 4° C. for 1 h 30 min. in the presence or absence of NKA at 1 μM final. Each 500 μl sample contains 25,000 cells, 1 nM 3HSR 48968 and a non-radioactive ligand at various concentrations (from 1 nM to 10 μM). The incubation is carried out for one hour at 4° C. Filtration is carried out at the end of incubation, as described in 3b).

Values joined by “and” are separate entries in the source; they are usually repeats but may differ in a detail not shown here. Identical values can stand only once.

Turning to neurokinin A [NKA], the inhibitory constant (Ki) is 3.03 nM and 3 nM.
